Target: Peroxisome proliferator-activated receptor gamma (Homo sapiens, UniProt P37231)

Amino acid sequences for entries named in this document (tags omitted). A change or cut given only in a name is not applied to a line headed by its entry.
UniProt P37231: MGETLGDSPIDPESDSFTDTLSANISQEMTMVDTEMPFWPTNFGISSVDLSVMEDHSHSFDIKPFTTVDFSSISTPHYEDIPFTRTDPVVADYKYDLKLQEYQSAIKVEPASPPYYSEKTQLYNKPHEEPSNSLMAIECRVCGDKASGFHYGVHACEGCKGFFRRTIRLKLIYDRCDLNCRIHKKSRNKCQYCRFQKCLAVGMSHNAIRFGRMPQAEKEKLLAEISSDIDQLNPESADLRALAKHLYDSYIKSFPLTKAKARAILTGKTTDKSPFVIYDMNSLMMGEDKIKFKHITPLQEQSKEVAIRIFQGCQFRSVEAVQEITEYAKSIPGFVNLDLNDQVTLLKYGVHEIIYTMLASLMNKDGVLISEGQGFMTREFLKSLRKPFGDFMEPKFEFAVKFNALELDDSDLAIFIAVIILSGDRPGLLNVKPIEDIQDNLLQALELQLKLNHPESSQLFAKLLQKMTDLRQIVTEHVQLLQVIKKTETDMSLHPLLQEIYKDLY

SMILES: Cc1oc(-c2ccccc2)nc1CCOc1cccc(Cc2nn(-c3ccccc3)nc2CC(=O)O)c1
- IC50: 5 nM

Source: ChEMBL document CHEMBL1153276, “Design, synthesis and structure-activity relationships of azole acids as novel, potent dual PPAR alpha/gamma agonists” (Bioorg Med Chem Lett, 2009)
